The test system of the assay is human σ1 receptor and human μ-opioid receptor. Description: Human σ1 receptor and human μ-opioid receptor radioligand assays (dual binding). Further details: μ and σ1 dual binding: key to the marks not given beside the values. To be noted: combined class for Ki-μ ([3H]-DAMGO, transfected CHO-K1 membranes) and Ki-σ1 ([3H](+)-pentazocine, transfected HEK-293 membranes); for Ki: read-out: μ and σ1 dual binding.

With `Oc1cccc(N2CCCCC23CCN(Cc2ccccc2)CC3)c1`, the Ki was less than 0.5 µM.

As to `COc1cccc(N2CCCCC23CCN(Cc2ccccc2)CC3)c1`, the Ki is less than 0.5 µM.

Take `Cl.c1ccc(CN2CCC3(CCCCN3c3ccccc3)CC2)cc1`: the “μ and σ1 dual binding” value is on record as “++”.

Regarding `c1ccc(CCN2CCC3(CCCCN3c3ccccc3)CC2)cc1`, the Ki is less than 0.5 µM.

For `CC(=O)Nc1cccc(CCN2CCC3(CC2)COCCN3c2ccccc2)c1`, the Ki was less than 0.5 µM.

As for `c1ccc(CCN2CCC3(CC2)COCCN3c2ccccc2)cc1`, the Ki is less than 0.5 µM.
